The values that follow are results of earlier work, collected in paper PMC8198792, “Prediction of Anticancer Peptides with High Efficacy and Low Toxicity by Hybrid Model Based on 3D Structure of Peptides” (International Journal of Molecular Sciences, 2021).

Data set [1] concerns cancer cell lines. The arrangement: method as in 6 sources, ref CancerPPD [45] and SATPdb ||| ref CancerPPD/SATPdb ||| ref CancerPPD, SATPdb, Swissprot (PDB) ||| ref CancerPPD/SATPdb/Swissprot(PDB) ||| ref CancerPPD / SATPdb ||| ... The conditions noted are these: cited from earlier work. From the text:
Supplement ijms-22-05630-s001.zip/ACPs(seguence).xlsx, sheet "D1" | column: Activity || Supplement ijms-22-05630-s001.zip/ACPs(seguence).xlsx, sheet "D2" | column: Activity || Supplement ijms-22-05630-s001.zip/ACPs(seguence).xlsx, sheet "D3" | column: Activity || (+ 2 further places)

In data set [2] the test system is many types of cells, including non-cancer cells. Also on record: key: The majority of toxic peptides in the SATPdb are peptide toxins from ATDB [50], Tox-Prot [51], ConoServer [52] and DBETH [53]; 0: Non-toxic AMPs were retrieved from SATPdb as non-toxic peptides, that is, negative datasets. As to conditions: toxic peptides dataset TD2; class label 1 (toxic, positive set) or 0 (non-toxic AMP, negative set); ref SATPdb; cited from earlier work. From the text: Supplement ijms-22-05630-s001.zip/Toxic Peptides(seguence).xlsx, sheet "TD1" | column: Activity || Supplement ijms-22-05630-s001.zip/Toxic Peptides(seguence).xlsx, sheet "TD2" | column: Activity || Supplement ijms-22-05630-s001.zip/Toxic Peptides(seguence).xlsx, sheet "TD3" | column: Activity

Like-named read-outs stand apart in the source and are kept apart here.

On to LTFEHYWAQLTS [compound 4579], for which the Activity in data set [1] (ACPs dataset D1, 1 = ACP (positive), 0 = non-ACP (negative), label taken from databases, ref CancerPPD [45] and SATPdb) is given as 1; in data set [1] (ACPs dataset D4 (sheet "D4"), label 1 = ACP, experimentally validated ACPs, ref CancerPPD [45] and SATPdb), 1; in data set [1] (ACPs dataset D5 (sheet "D5"), label 1 = ACP (positive set), sequences with CancerPPD/SATPdb ID, ref CancerPPD, SATPdb), 1; in data set [1] (ACPs dataset sheet D2, 1 = ACP (CancerPPD/SATPdb ID), 0 = non-ACP (Swissprot/PDB ID), ref CancerPPD, SATPdb, Swissprot (PDB)) it was 1.

With “ACDTATCVTHRLAGLLSRSGGVVKNNFVPTNVGSKAF [satpdb15418]”, in data set [2], the Activity is reported as 0.
